# AlphaSeq binding of Ab-14 light chain variants to a spike HR2 peptide

Target: peptide PDVDLGDISGINAS, taken from heptad repeat 2 (HR2) of SARS-CoV-2 spike.

The variants keep the heavy chain, the linker and the frameworks of Ab-14 (scFv order VH, the linker GGGGSGGGGSGGGGS, VL).
VH: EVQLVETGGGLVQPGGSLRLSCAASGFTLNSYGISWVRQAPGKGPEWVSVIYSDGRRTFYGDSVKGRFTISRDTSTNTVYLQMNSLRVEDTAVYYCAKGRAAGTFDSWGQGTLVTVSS
VL: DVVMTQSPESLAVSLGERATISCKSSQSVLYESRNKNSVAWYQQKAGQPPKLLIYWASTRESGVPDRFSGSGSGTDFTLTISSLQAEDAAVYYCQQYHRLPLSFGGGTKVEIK

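The starting antibody came from a phage panning campaign against this peptide. Designed CDR sequences, proposed from the first random library and measured here. Several design methods are mixed in this list. In AlphaSeq, yeast of one mating type display the scFv and yeast of the other type display the target. Mating (16 h, 30 °C) was followed by selection of diploids and sequencing of their barcodes. Each replicate has its own calibration line, from reference interactions of the BCL2 family. Mating was done six times.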

Each variant is given by its three light chain CDRs, as the data file delimits them; those of the parent are KSSQSVLYESRNKNSVA, WASTRES, QQYHRLPLS. Scale: log10 of Kd in nM, estimated from mating counts; low values are strong binders. Replicates are averaged; those with no signal do not enter the mean. A pair that was not seen in any replicate is written "not detected"; this usually means weak binding, but a binder can also be missed. Nonspecific signal, from three strains lacking the peptide, appeared in 4% of pairings of all light chain designs, centred on 2.64 (5% of these signals below 1.59); values are not corrected for it. The control count says in how many pairings with the empty strains this scFv gave a signal. A sequence measured in both rounds can read differently, since the two assays cover different ranges. The authors averaged sequences with at least three values out of six and counted those with two or fewer as poor binders. The parent sequence was in this pool as ten entries: three were never detected, three once, and four in most replicates, with averages from 0.34 to 2.37.

| log10 Kd (nM), mean | seen in | signal with controls | CDR-L1 | CDR-L2 | CDR-L3 |
|---|---|---|---|---|---|
| -0.17 | 6 of 6 | 2 of 18 | KISQSYLGLSRNVNAVA | NGSTRES | QQYHRLPLS |
| 0.72 | 6 of 6 | 0 of 18 | IVSQLMLWGMHHKNSIA | EAEMRLN | QQYERLPLF |
| 0.58 | 6 of 6 | 0 of 18 | KIGMTLNQMMHKKNNVA | DLVERAN | QQYFRLPLS |
| 1.78 | 1 of 6 | 0 of 18 | HLSLRLSYGNMLQNAVA | EVQARMT | QQYARLPLL |
| 1.63 | 6 of 6 | 0 of 18 | MISQLYNMGQFAINSVA | QASQRCE | QQYDRLPLL |
| 0.24 | 6 of 6 | 0 of 18 | KLQNSFLYESRMKNSVA | EASQREM | QQYHRLPLS |
| 0.07 | 6 of 6 | 1 of 18 | KSSQSWLYESLNKNSVA | GASTREN | QQYHRLPLS |
| 1.17 | 6 of 6 | 1 of 18 | KLQISVLDEERNDNSVA | WASHRES | QQYHRLPLS |
| 1.97 | 3 of 6 | 0 of 18 | MISNEQDYNYSADNSVA | DVTEKCN | QQYKRLPLT |
| not detected | 0 of 6 | 0 of 18 | KLSISYLFESQEKNSIA | ENSTREQ | QHYHRLPLS |
| 1.70 | 4 of 6 | 0 of 18 | HIQYGMMVHGRHSKSIA | QAETRAK | QQYDRLPLI |
| 0.54 | 6 of 6 | 1 of 18 | KLSSSWLYEQRNMNSVA | QASQRLR | QQYHRLPLS |
| 1.40 | 6 of 6 | 0 of 18 | KFSQMVNTMSVSKSAVA | EMSTREN | QQYNRLPLS |
| 0.13 | 6 of 6 | 1 of 18 | KLLQSVLYESRNKNSVA | HASTRED | QQYHRLPLS |
| not detected | 0 of 6 | 0 of 18 | HMSMLTLQGQRHRNAVA | QMTTREN | QQYDRLPLT |
| not detected | 0 of 6 | 0 of 18 | TISQSTYWEEFNKNSVA | QTSTREE | QDYDRLPLS |
| 0.72 | 6 of 6 | 1 of 18 | KSAQSDLYESRNFNSVA | AASTRES | QQYHRLPLS |
| 0.69 | 6 of 6 | 0 of 18 | ISSQGTLYESNVKNSVA | EASTREM | QQYHRLPLS |
| -0.11 | 6 of 6 | 3 of 18 | KSSESYLYESRNKNSVA | EASTRES | QQYHRLPLS |
| -0.06 | 6 of 6 | 2 of 18 | KFSQSVLYESRNKNAVA | DASTRES | QQYHWLPLS |
| 0.35 | 6 of 6 | 1 of 18 | KSMQGVLYESRNKNSVA | GASLRES | QQYHRLPLS |
| 1.01 | 6 of 6 | 0 of 18 | KISMLLNSTFETSNNVA | EMATREK | QQYNRLPLS |
| 0.53 | 6 of 6 | 1 of 18 | KLTSVTGTEKVRGNNVA | EMETREK | QQYNRLPLS |
| 2.67 | 1 of 6 | 2 of 18 | KLRESIHVESKQKNNVA | ENSTRES | QDYHRLPLS |
| 1.51 | 6 of 6 | 1 of 18 | IISQSVLYESRNKNSVA | WASTRES | QQYHRNPLS |
| 0.18 | 6 of 6 | 2 of 18 | ALSQSMDMTSRNKNSVA | DLSTRGN | QQYHRLPLS |
| -0.03 | 6 of 6 | 1 of 18 | KSLWSELYESNNKNSVA | HASTRED | QQYHRLPLS |
| -0.25 | 6 of 6 | 1 of 18 | KLQQSWLYESRNKNSVA | NASQREQ | QQYHRLPLS |
| not detected | 0 of 6 | 1 of 18 | MVNQIMDHLSKQTNNVA | ETVTREE | QQYDRLPLS |
| -0.21 | 6 of 6 | 1 of 18 | KSPQSWLYESRNKNSVA | NASQRES | QQYHRLPLS |
| -0.11 | 6 of 6 | 1 of 18 | HLSQSVGYEMRNKNSVA | EAQTREQ | QQYHRLPLS |
| 0.36 | 6 of 6 | 2 of 18 | KVLQSVVYEQRNKNSVA | HASTRED | QQYHRLPLS |
| not detected | 0 of 6 | 0 of 18 | KIGHGLTTESRAKNSVA | QTETRVS | QHYHRLPLS |
| -0.51 | 6 of 6 | 0 of 18 | KLYQSVLYESRNKNSVA | NASQRES | QQYHRLPLS |
| 0.02 | 6 of 6 | 0 of 18 | KVSQSELYESRNKNSVA | EASTRCS | QQYHRLPLS |
| -0.12 | 6 of 6 | 2 of 18 | KLSQSVGYESRNKNSVA | GASTRES | QQYHRLPLS |
| 0.02 | 6 of 6 | 1 of 18 | KLSMSWMQEERNKNSVA | QASQREQ | QQYHRLPLS |
| 0.09 | 6 of 6 | 0 of 18 | RIQDHHAVGEMRHSSIA | EESYRMD | QQYSRLPLA |
| 0.30 | 6 of 6 | 2 of 18 | TFSQTVMYESTMRNNVA | QTSTRES | QQYDRLPLS |
| 1.77 | 6 of 6 | 1 of 18 | MISQLSNMGQFAINSVA | QMSVRNE | QQYDRLPLA |
| -0.14 | 6 of 6 | 0 of 18 | KLSQSVLYEERNKNNVA | NASTRES | QQYHRLPLS |
| 0.74 | 6 of 6 | 3 of 18 | KLQQSCLYESRNPNSVA | NASTRYS | QQYHRLPLS |
| 0.03 | 6 of 6 | 2 of 18 | KQSGSQLCESRNKNSVA | DASTRES | QQYHRLPLS |
| 2.07 | 6 of 6 | 0 of 18 | KSSTSYLYESRNTNSVA | EASTRES | QQYHRLPLS |
| 0.19 | 6 of 6 | 0 of 18 | KVSQWVLYESRTKNSVA | NASQRES | QQYHRLPLS |
| -0.01 | 6 of 6 | 2 of 18 | KISQSYLMESRNKNSVA | NASTRCW | QQYHRLPLS |
| 0.32 | 6 of 6 | 1 of 18 | KLSQSMLYESRNKNNVA | EASQRES | QMYHRLPLS |
| 0.34 | 6 of 6 | 1 of 18 | KSSQSSLYESRNKNSVA | EASTRES | QQYHRLPLS |
| 0.38 | 6 of 6 | 2 of 18 | KLYQMTGIESHAKNSLA | DANRREA | QQYHRLPLS |
| 0.43 | 6 of 6 | 0 of 18 | TLSQSWGMESHHKNNVA | QESTREK | QQYFRLPIS |
| not detected | 0 of 6 | 0 of 18 | KSSQSVLYDSRNKNSVA | WASTRES | QQYHREPLS |
| 0.76 | 6 of 6 | 0 of 18 | KLQQQVLYESRNKNSVA | SASTREE | QQYHRLPLS |
| 0.72 | 6 of 6 | 0 of 18 | KVSQSHLYESRNKNSVA | HASTRES | QQYHRLPLS |
| 1.46 | 6 of 6 | 2 of 18 | MVTQMAMSGMTNKRSVA | NAETREN | QQYHRLPLI |
| 0.34 | 6 of 6 | 0 of 18 | HISPSFMVESRLKNSVA | QTETREE | QQYDRLPLS |
| 1.92 | 1 of 6 | 0 of 18 | KISQMTRVGSTHGNSIA | EEATRAK | QQYHRLPLF |
| 0.26 | 6 of 6 | 1 of 18 | KLPHLSFVHDREKNNVA | DLNVKCS | QQYDRLPLV |
| -0.03 | 6 of 6 | 0 of 18 | KSDQGVLYESRNKNSVA | GASQRES | QQYHRLPLS |
| 0.01 | 6 of 6 | 0 of 18 | KSSISYLLESRNKNSVA | EASTRES | QQYHRLPLS |
| 0.24 | 6 of 6 | 2 of 18 | HLSIKLPGNWYMGDSVA | HSERRAE | QQYARLPLG |
| 1.67 | 6 of 6 | 0 of 18 | KSSQSVEQESRNKNSVA | WASTRES | QQYHRLPLS |
| -0.32 | 6 of 6 | 1 of 18 | KVSQSMLYESRNKNAVA | NASTRES | QQYHRLPLS |
| 1.29 | 6 of 6 | 0 of 18 | KLMHYKLGENGMRGSVA | NMTIREY | QQYFHLPLF |
| 0.47 | 6 of 6 | 2 of 18 | TLYGLSNSMSKNKNNVA | EMTTREY | QQYDRLPLV |
| -0.12 | 6 of 6 | 4 of 18 | KLEQSQLYESRNKNSVA | NASTREQ | QQYHRLPLS |
| 1.51 | 6 of 6 | 0 of 18 | KISQMVKVGATHSNSIA | EEVTRAK | QQYHRLPLA |
| not detected | 0 of 6 | 1 of 18 | IVSQLMLWGMHHKNSIA | EAQTRLN | QQYDRLPLF |
| 2.15 | 6 of 6 | 0 of 18 | MISQLQNMGQFAINSVA | QASLRND | QQYDRLPLT |
| -0.02 | 6 of 6 | 2 of 18 | KLPQSQLYESRNKNSVA | NASQRES | QQYHRLPLS |
| 0.04 | 6 of 6 | 1 of 18 | KLSQSQLYESRNKWSVA | NASTRES | QQYHRLPLS |
| -0.16 | 6 of 6 | 1 of 18 | KQQQSVLYEGRNKNSVA | DASTRES | QQYHRLPLS |
| 1.69 | 5 of 6 | 1 of 18 | IVSQLMLWGYHAKNSIA | EAEMRTN | QQYDRLPLF |
| -0.40 | 6 of 6 | 0 of 18 | KLSQSMLYESRNKNSVA | NASQRES | QQYHRLPLS |
| -0.21 | 6 of 6 | 1 of 18 | KLVQSELYESRNKNSVA | NASQRLS | QQYHRLPLS |
| 0.17 | 6 of 6 | 0 of 18 | KSSPSEPYEDRNFNSVA | HASQRES | QQYHRLPLS |
| 0.05 | 6 of 6 | 1 of 18 | KLGDMVHTLSRNKNSIA | DLRTRES | QQYYRLPLS |

12 of these entries, quoted again:

| CDR-L1 | CDR-L2 | CDR-L3 | log10 Kd (nM), mean | seen in | signal with controls |
|---|---|---|---|---|---|
| KSSPSEPYEDRNFNSVA | HASQRES | QQYHRLPLS | 0.17 | 6 of 6 | 0 of 18 |
| KLGDMVHTLSRNKNSIA | DLRTRES | QQYYRLPLS | 0.05 | 6 of 6 | 1 of 18 |
| KLLQSVLYESRNKNSVA | HASTRED | QQYHRLPLS | 0.13 | 6 of 6 | 1 of 18 |
| KLSSSWLYEQRNMNSVA | QASQRLR | QQYHRLPLS | 0.54 | 6 of 6 | 1 of 18 |
| MVNQIMDHLSKQTNNVA | ETVTREE | QQYDRLPLS | not detected | 0 of 6 | 1 of 18 |
| KLMHYKLGENGMRGSVA | NMTIREY | QQYFHLPLF | 1.29 | 6 of 6 | 0 of 18 |
| KVSQSELYESRNKNSVA | EASTRCS | QQYHRLPLS | 0.02 | 6 of 6 | 0 of 18 |
| KISQSYLMESRNKNSVA | NASTRCW | QQYHRLPLS | -0.01 | 6 of 6 | 2 of 18 |
| KSSQSSLYESRNKNSVA | EASTRES | QQYHRLPLS | 0.34 | 6 of 6 | 1 of 18 |
| HISPSFMVESRLKNSVA | QTETREE | QQYDRLPLS | 0.34 | 6 of 6 | 0 of 18 |
| KLQQQVLYESRNKNSVA | SASTREE | QQYHRLPLS | 0.76 | 6 of 6 | 0 of 18 |
| HLSIKLPGNWYMGDSVA | HSERRAE | QQYARLPLG | 0.24 | 6 of 6 | 2 of 18 |

Data: MIT Lincoln Laboratory AlphaSeq set, Li et al. 2023, doi:10.1038/s41467-023-39022-2, as distributed in FLAb.